An excerpt weighted towards active compounds, which were near 1.3% of everything screened.
E-selectin induc: E-selectin induction on HUVECs; HUVEC E-selectin immunofluorescence imaging; normalized: neutral wells 0, TNF-alpha wells 100; activation, % at 7.58 µM; actives 0.37% (n = 260,000);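 active = mean E-selectin-positive cell signal at least 10% of the positive control, reached in at least 60% of replicates, without over 20% cell loss; inconclusive = no rule given, readout overlaps actives, possibly toxicity-flagged; inactive = the rest, including those meeting only one limit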
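System: HUVEC / Compound: single concentration / Signal: immunofluorescence imaging / Read-out: percent E-selectin-positive cells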
AF4-AF9 inh: inhibitors of human MLL-AF4/AF9 interaction | actives 0.47% (n = 350,000) | inhibition, % at 10 µM | P42568 | AlphaScreen, biotin-AF4 peptide binding to FLAG-AF9;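 active = every replicate reaching a set inhibition limit, whatever the replicate mean, cut at about 25% in these data; inconclusive = mean inhibition reaches that limit but some replicates miss it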;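 also: 0% = plate neutral control median and 100% = total signal loss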
UUG fidelity: modulators of start codon recognition fidelity in yeast. activity score, % at 18.7 µM. S. cerevisiae UUG-firefly luciferase reporter, luminescence/redox ratio. 350,000 compounds, 0.13% hits;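 active means replicate mean at a twofold rise or more, about +100% in these data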;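 further: firefly luciferase made from a UUG start codon reports start codon fidelity; reporter light over untreated wells divided by growth signal over untreated wells; some hits fall short of that in this replicate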
S100A4 inh HTS: S100A4-myosin IIA interaction inhibition; actives 0.14% (n = 360,000); inhibition, % at 10.7 µM; P26447; S100A4/TAMRA-MyoIIA peptide fluorescence polarization;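 active = mean inhibition of at least 70% across replicates, with every replicate also reaching that level; inconclusive = mean inhibition reaches 70% but some replicates fall short; inactive = mean inhibition below 70%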
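Test system – S100A4 monomer (human) · Compound – single-point compound testing · Schedule – 5 min incubation before reading · Probe or stimulus – TAMRA-labelled myosin IIA heavy-chain peptide probe, 5 nM · Benchmarks – neutral control DMSO, positive control TFP · Medium – Calcium-containing HEPES buffer, pH 7.2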
ARNT TACC3 PPI: ARNT/TACC3 interaction disruption; Q9Y6A5; AlphaScreen His-ARNT PAS-B/GST-TACC3 binding, luminescence; TACC3 fragment carries E629A point mutation; inhibition, % at 9.99 µM; actives 0.66% (n = 390,000);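 active = mean inhibition of replicates at least 50% and at least half of replicates each reaching 50%; inconclusive = half or more replicates reach 50% but mean below 50%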;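 also: 0% = complete ARNT plus TACC3 wells and 100% = ARNT alone without TACC3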
ERAP1 inh: ERAP1 (human) enzyme inhibition; Q9NZ08; recombinant ERAP1, Leu-AMC fluorescence, 60 min; inhibition, % at 10.7 µM; actives 0.15% (n = 340,000); AID 652197;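 active = mean replicate inhibition of at least 30%, or all replicates individually reaching that 30% level; inactive = mean below 30% and not every replicate reaching it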;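 also: 0% = neutral control wells and 100% = L-leucinethiol positive control wells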
An asterisk follows results filed as active; ? = inconclusive; . = no result given.

The first 2 compounds as a preview:
[1] CC(=O)Nc1ccc2c(c1)C(=O)c1ccccc1C2=O
[2] O=C(O)/C=C/C(=O)Nc1ccc2c(c1)C(=O)c1ccccc1C2=O

assay / entry	1	2
ARNT TACC3 PPI	2.1	47.6*
S100A4 inh HTS	.	-0.6
AF4-AF9 inh	.	.
E-selectin induc	.	.
ERAP1 inh	.	4.7
UUG fidelity	-10.7	.

The list itself (from the top)
[1] CC(=O)Nc1ccc2c(c1)C(=O)c1ccccc1C2=O
[2] O=C(O)/C=C/C(=O)Nc1ccc2c(c1)C(=O)c1ccccc1C2=O
[3] O=C(O)/C=C/C(=O)Nc1ccc(O)cc1
[4] C[C@@H]1CCCCO[C@@H](CN(C)C(=O)Nc2ccc3c(c2)OCO3)[C@@H](C)CN([C@H](C)CO)C(=O)c2cc(NS(=O)(=O)c3ccccc3)ccc2O1
[5] O=C(Nc1nnc(-c2ccccc2)o1)C1CCCN1S(=O)(=O)c1cccs1 (stereo not drawn)
[6] O=C(O)CN1C(=O)/C(=C\c2cn(-c3ccccc3)nc2-c2ccccc2)SC1=S
[7] C[C@@H]1CN([C@H](C)CO)C(=O)c2cc(NC(=O)CCC(F)(F)F)ccc2O[C@H]1CN(C)Cc1ccc(C(F)(F)F)cc1
[8] C[C@@H]1CCCCO[C@@H](CN(C)Cc2ccc(C(=O)O)cc2)[C@H](C)CN([C@H](C)CO)C(=O)c2cc(NC(=O)CCCN(C)C)ccc2O1

assay / entry	1	2	3	4	5	6	7	8
ARNT TACC3 PPI	2.1	47.6*	54.2*	-3.5	45.3*	45.6*	-17.2	9.1
S100A4 inh HTS	.	-0.6	30.5	2.3	0.3	.	-2.6	130.5*
AF4-AF9 inh	.	.	-1.0	5.4	0.3	.	0.6	-5.1
E-selectin induc	.	.	0.2	-0.1	0.3	.	-21.1	-0.1
ERAP1 inh	.	4.7	6.7	1.4	0.1	.	-1.1	-3.7
UUG fidelity	-10.7	.	-11.5	7.4	-21.4	3.7	19.8	22.4

[9] C[C@@H]1CN([C@H](C)CO)C(=O)c2cc(NC(=O)CCC(F)(F)F)ccc2O[C@@H]1CN(C)Cc1ccc(C(F)(F)F)cc1
[10] C[C@@H]1CCCCO[C@H](CN(C)Cc2ccc(C(=O)O)cc2)[C@H](C)CN([C@@H](C)CO)C(=O)c2cc(NC(=O)CCCN(C)C)ccc2O1
[11] C[C@H]1CN([C@@H](C)CO)C(=O)c2cc(NC(=O)CCC(F)(F)F)ccc2O[C@H]1CN(C)Cc1ccc(C(F)(F)F)cc1
[12] C[C@H]1CN([C@@H](C)CO)C(=O)c2cc(NC(=O)CCCN(C)C)ccc2O[C@H]1CN(C)Cc1ccc(C(F)(F)F)cc1
[13] C(=N\Nc1ccc2nncn2n1)/c1ccccn1
[14] O=c1nc(N/N=C/c2ccccn2)cn[nH]1
[15] Cc1cc(=O)[nH]c(N/N=C/c2ccccn2)n1
[16] C(=N\Nc1nc2ccccc2[nH]1)/c1ccccn1

assay / entry	9	10	11	12	13	14	15	16
ARNT TACC3 PPI	36.9	-13.1	4.2	-3.6	50.7*	64.1*	18.9	.
S100A4 inh HTS	6.1	2.2	2.9	19.7	0.2	-1.2	.	-2.6
AF4-AF9 inh	-0.9	-3.0	1.3	-1.9	-2.2	-8.9	.	14.1
E-selectin induc	52.2*	0.0	18.5	41.6*	-0.4	.	-0.1	.
ERAP1 inh	0.6	-5.2	1.3	3.9	-1.9	5.0	.	-1.4
UUG fidelity	0.4	-6.8	-6.9	1.8	-8.8	.	.	.

[17] O=c1cnnc(N/N=C/c2ccccn2)[nH]1
[18] C/C(=N\Nc1ccc2nncn2n1)c1ccccn1
[19] C[C@@H]1CN([C@@H](C)CO)C(=O)c2cccc(NC(=O)c3ccncc3)c2O[C@H]1CN(C)CC1CCCCC1
[20] CN1C(=O)c2cc(NC(=O)c3ccc(F)cc3)ccc2OC[C@H]2O[C@@H](CC(=O)N3CCOCC3)CC[C@@H]21
[21] CC(=O)Nc1ccc(NC(=O)C(C)OC(=O)c2ccccc2Sc2ccccc2C#N)cc1 (stereo not drawn)
[22] COc1ccccc1-c1cn(CC[C@@H]2CC[C@H](NS(=O)(=O)c3ccccc3C)[C@@H](CO)O2)nn1
[23] Cc1cc(NC(=O)c2ccc(Cl)cc2)n(CCC#N)n1
[24] Cc1ccc(C(=O)Nc2cc(C)nn2CCC#N)cc1

assay / entry	17	18	19	20	21	22	23	24
ARNT TACC3 PPI	78.2*	.	5.9	5.0	-20.2	-2.9	.	-4.9
S100A4 inh HTS	-21.9	-3.7	0.4	2.6	-4.1	6.4	-0.3	-3.0
AF4-AF9 inh	.	-3.2	-0.6	-0.8	96.1*	-8.8	0.7	-0.4
E-selectin induc	.	0.6	0.1	0.0	.	-0.3	.	32.5*
ERAP1 inh	5.0	.	2.4	0.1	3.4	-5.2	2.4	0.2
UUG fidelity	-25.6	39.0	-10.5	9.6	-8.7	3.9	-6.5	-10.7

[25] C=CCn1c(=N)n(CC(=O)c2ccc(Br)s2)c2ccccc21
[26] C=CCn1c(=N)n(CC(=O)c2ccc(Cl)cc2)c2ccccc21
[27] O=C(O)c1ccccc1C(=O)Nc1nccs1
[28] O=C(O)c1ccccc1C(=O)Nc1n[nH]c(=S)s1
[29] O=C(CCl)Nc1ccccc1Sc1ccccc1
[30] O=C(Cc1ccc(Cl)cc1)Nc1ccccc1Sc1ccccc1
[31] CCCCCCCCCCCCCCCC[n+]1ccccc1
[32] CCN1CCN(c2ccc(N=Cc3ccccc3O)cc2)CC1

assay / entry	25	26	27	28	29	30	31	32
ARNT TACC3 PPI	-4.0	-19.1	-3.7	-3.8	-5.1	-4.7	0.6	.
S100A4 inh HTS	3.3	-5.2	.	-2.9	.	.	-12.4	9.1
AF4-AF9 inh	6.1	2.2	.	0.7	.	.	-3.4	57.2*
E-selectin induc	69.2*	.	.	.	.	.	?	2.8
ERAP1 inh	-0.4	2.2	.	79.3*	.	.	74.8*	-0.6
UUG fidelity	-5.0	-11.1	-15.3	-13.2	508.5*	-21.5	-69.9	.

[33] COc1cc(NS(=O)(=O)c2ccc(Nc3nc(-c4ccccn4)cs3)cc2)nc(OC)n1
[34] C[C@H]1CN([C@@H](C)CO)C(=O)c2cc(NC(=O)c3ccncc3)ccc2O[C@@H]1CN(C)Cc1ccc(-c2ccccc2)cc1
[35] Nc1nc(N)nc(-c2ccccn2)n1
[36] c1ccc(-c2nc(-c3ccccn3)nc(-c3ccccn3)n2)nc1
[37] c1ccc(-c2nc3ccccc3nc2-c2ccccn2)nc1
[38] Clc1ccc(-c2cnnc(-c3ccccn3)n2)cc1
[39] C[C@H]1CN([C@@H](C)CO)C(=O)Cc2cc(NC(=O)Cc3ccccc3)ccc2O[C@H]1CN(C)Cc1ccncc1
[40] CCOC(=O)N1CCC(=NNc2ncc(C(F)(F)F)cc2Cl)CC1

assay / entry	33	34	35	36	37	38	39	40
ARNT TACC3 PPI	56.2*	1.8	63.6*	51.3*	13.9	60.6*	19.1	0.6
S100A4 inh HTS	2.6	-5.4	.	-20.5	.	-0.6	14.3	-8.3
AF4-AF9 inh	-5.5	5.4	.	-3.1	.	-2.3	-1.4	-0.5
E-selectin induc	1.9	-35.6	.	0.0	.	-0.1	3.9	2.8
ERAP1 inh	1.9	-0.8	.	.	.	-2.4	1.2	-0.3
UUG fidelity	.	-7.6	-12.2	-13.7	.	-32.1	22.3	-23.7

2 compounds picked at random from those above:
[36] c1ccc(-c2nc(-c3ccccn3)nc(-c3ccccn3)n2)nc1
[40] CCOC(=O)N1CCC(=NNc2ncc(C(F)(F)F)cc2Cl)CC1

assay / entry	36	40
ARNT TACC3 PPI	51.3*	0.6
S100A4 inh HTS	-20.5	-8.3
AF4-AF9 inh	-3.1	-0.5
E-selectin induc	0.0	2.8
ERAP1 inh	.	-0.3
UUG fidelity	-13.7	-23.7

More results
[41] CC(=O)N1CCC(=NNc2ncc(C(F)(F)F)cc2Cl)CC1
[42] CN(CCCC1CCCC1)C(=O)CCc1nnc(-c2ccccc2)o1
[43] O=C(O)CCC(=O)Nc1ccc(SSc2ccc(NC(=O)CCC(=O)O)cc2)cc1
[44] O=C(O)CCC(=O)Nc1ccc(F)cc1
[45] Cc1ccc2oc(C(=O)N(Cc3ccc(N(C)C)cc3)C3CCS(=O)(=O)C3)c(C)c2c1 (stereo not drawn)
[46] Cc1ccc2c(C)c(C(=O)N(Cc3ccc(N(C)C)cc3)C3CCS(=O)(=O)C3)oc2c1 (stereo not drawn)
[47] COc1ccc(OC)c(NC(=O)c2csc(Cl)c2OC)c1
[48] O=C(O)CN(CC(=O)O)CC(=O)O

assay / entry	41	42	43	44	45	46	47	48
ARNT TACC3 PPI	47.8*	0.2	7.5	2.4	22.2	20.1	12.6	65.3*
S100A4 inh HTS	0.0	0.1	-3.4	.	-0.5	-0.1	-6.9	-1.5
AF4-AF9 inh	0.6	47.5*	-3.2	.	7.3	38.1*	0.7	-7.3
E-selectin induc	-1.2	.	-0.2	.	-0.2	0.5	37.7*	2.0
ERAP1 inh	.	-0.7	37.7*	.	-2.1	6.7	0.1	6.4
UUG fidelity	.	-2.6	-16.5	-2.1	3.0	3.4	-13.3	-10.0

Screens as filed in PubChem BioAssay.
